Laboratory results reported in US20140193338A1, “COMPOUNDS FOR USE IN IMAGING, DIAGNOSING AND/OR TREATMENT OF DISEASES OF THE CENTRAL NERVOUS SYSTEM” (PIRAMAL IMAGING SA, priority 2011, published 2014).

By UniProt entry, the sequences of proteins in these tests, tags left out.
UniProt P27338, whole entry: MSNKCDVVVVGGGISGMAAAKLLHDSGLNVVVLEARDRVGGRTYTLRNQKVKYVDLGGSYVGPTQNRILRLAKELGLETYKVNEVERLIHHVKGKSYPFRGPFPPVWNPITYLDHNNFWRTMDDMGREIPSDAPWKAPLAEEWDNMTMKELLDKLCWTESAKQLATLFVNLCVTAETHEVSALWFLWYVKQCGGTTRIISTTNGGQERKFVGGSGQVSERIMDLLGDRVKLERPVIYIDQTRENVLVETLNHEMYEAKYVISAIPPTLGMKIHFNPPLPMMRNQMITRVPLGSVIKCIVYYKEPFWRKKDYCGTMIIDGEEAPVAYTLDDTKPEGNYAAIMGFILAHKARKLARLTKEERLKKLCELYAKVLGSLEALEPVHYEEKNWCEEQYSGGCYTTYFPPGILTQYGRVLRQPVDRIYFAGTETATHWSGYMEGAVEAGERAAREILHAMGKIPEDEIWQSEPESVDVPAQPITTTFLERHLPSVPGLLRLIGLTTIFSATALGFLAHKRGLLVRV

Biological target: T1, MAO-B (Homo sapiens, UniProt P27338)
T1 construct: Autoradiography using [^18F]rasagiline on human brain slices from a healthy subject; from tissue; host or cells: human brain hemisphere cryosections (100 µm)
Assay: Autoradiography with [^18F]rasagiline on human brain sections, blocking with excess inhibitor
Assay type: binding
Procedure: Binding of the [^18F]rasagiline (compound of formula F) was investigated on human brain sections from normal subjects using a standard protocol.
In brief, whole brain hemispheres were cut at a 100 μm thickness in a Cryocut (Leica, Germany), thaw mounted onto gelatine glass slides and kept at −25° C. before use. Thereafter, the slides containing the regions of interest (e.g. hippocampus, thalamus) were removed and brought to room temperature. The sections were incubated with 0.2 MBq/mL [^18F] compound F in 50 mM TRIS/0.1% BSA (pH 7.4) with salts (120 mM NaCl, 5 mM KCl, 1 mM CaCl2, 1 mM MgCl2) for 90 min at room temperature and washed three times for 5 min each in 50 mM TRIS (pH 7.4). The sections were dipped once into ice cold distilled water, dried at room temperature and exposed to PhosphorImager plates (FUJI BAS 5000) overnight.
For detection of the specificity of the signals an excess (10 μM) of deprenyl, rasagiline (both for MAO-B) and pirlindole (for MAO-A), respectively, was used together with the ^18F labelled rasagiline (compound F).

deprenyl
blocking of the [^18F]rasagiline (compound F) autoradiography signal: completely blocked
